Data on 1 compound can be found in ChEMBL document CHEMBL5226279, “Mercaptoacetamide: A promising zinc-binding group for the discovery of selective histone deacetylase 6 inhibitors” (Eur J Med Chem, 2021).

A short description of the data set: Efflux ratio of apparent permeability in human Caco-2 cells. The data set is classed as ADME, cell-based. For orientation: Caco-2 cells form a polarised layer with tight junctions and transporters.

As a reminder, the efflux ratio is a quotient of directional permeabilities that is used to spot active efflux. For `CN(C)c1ccc(C(=O)NCCCCCNC(=O)CS)cc1`, the efflux ratio came to 1.36.
